Test results from patent US12605517B1 (Belhaven BioPharma Inc., priority 2024, dated 2026).

Experiment: Study 101, plasma epinephrine pharmacokinetics
Format: in vivo
Details: human, 0.5 mg IM, read-out: Cmax (GeoMean)
Description: Each patient was provided each treatment of the trial with 72-hour washout periods between each treatment, beginning with a 3.5 mg intranasal dose, followed by a 0.3 mg intramuscular dose, followed by a 0.5 mg intramuscular dose, and concluding with a 5.5 mg intranasal dose, with a safety follow-up performed 3 to 5 days after the final dose was administered. The primary endpoints of the study were pharmacokinetic measurements and assessments of comparative bioavailability, while the secondary endpoints were safety concerns and pharmacodynamic assessments.

Cmax: 0.382 ng/mL
SMILES: CNC[C@H](O)c1ccc(O)c(O)c1 [Epinephrine IM, epinephrine]
